Assay results reported in PubChem BioAssay (NCI).
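These data come from cells grown in 96-well plates and exposed to compound for 48 hours at five concentrations. GI50 marks 50% less growth. TGI: concentration producing complete growth inhibition.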

Key:
Experiment in all cases: NCI anticancer screen, dose series, 48 h
[1] = tested on: COLO 205 colon
[2] = tested on: MDA-MB-435
[3] = tested on: BT-549 breast
[4] = tested on: HS 578T breast
[5] = tested on: SK-MEL-5 melanoma
[6] = tested on: ACHN renal
[7] = tested on: HCC-2998 colon
[8] = tested on: SF-295 CNS
[9] = tested on: CAKI-1 renal
[10] = tested on: NCI/ADR-RES ovarian
[11] = tested on: NCI-H23 lung
[12] = tested on: MALME-3M melanoma
[13] = tested on: EKVX NSCLC
[14] = tested on: SNB-75 CNS
[15] = tested on: UO-31 renal
[16] = tested on: MOLT-4 leukemia
[17] = tested on: NCI-H460 lung
[18] = tested on: CCRF-CEM leukemia
[19] = tested on: SK-MEL-28 melanoma
[20] = tested on: SN12C renal
[21] = tested on: U251 CNS
[22] = tested on: HOP-92 NSCLC
[23] = tested on: LOX IMVI melanoma
[24] = tested on: SK-OV-3 ovarian
[25] = tested on: KM12 colon
[26] = tested on: RPMI-8226 leukemia
[27] = tested on: 786-0 renal
[28] = tested on: SK-MEL-2 melanoma
[29] = tested on: OVCAR-5 ovarian
[30] = tested on: SF-268 CNS
[31] = tested on: MDA-MB-231 breast
[32] = tested on: HT29 colon
[33] = tested on: HOP-62 NSCLC
[34] = tested on: TK-10 renal
[35] = tested on: UACC-257 melanoma
[36] = tested on: SW-620 colon
[37] = tested on: IGROV1 ovarian
[38] = tested on: MCF7 breast
[39] = tested on: A498 renal
[40] = tested on: DU-145 prostate
[41] = tested on: UACC-62 melanoma
[42] = tested on: T-47D breast
[43] = tested on: NCI-H226 lung
[44] = tested on: M14 melanoma
[45] = tested on: SR leukemia
[46] = tested on: OVCAR-4 ovarian
[47] = tested on: A549 NSCLC
[48] = tested on: SF-539 CNS
[49] = tested on: HL-60(TB) leukemia
[50] = tested on: NCI-H322M lung
[51] = tested on: OVCAR-8 ovarian
[52] = tested on: HCT-116 colon
[53] = tested on: HCT-15 colon
[54] = tested on: K-562 leukemia
[55] = tested on: OVCAR-3 ovarian
[56] = tested on: NCI-H522 lung
[57] = tested on: SNB-19 CNS

CCCCCCCCCCCCCNCC(C)O.O=[N+]([O-])c1cc([N+](=O)[O-])c(O)c([N+](=O)[O-])c1 (stereo not drawn)
GI50 [1]: 1.25 µM | TGI [1]: 36.6 µM | GI50 [2]: 11.2 µM | TGI [2]: 25.1 µM | GI50 [3]: 13.1 µM | TGI [3]: 28 µM | GI50 [4]: 18.4 µM | TGI [4]: 46.5 µM | GI50 [5]: 8.11 µM | TGI [5]: 21.2 µM | GI50 [6]: 14.2 µM | TGI [6]: 30.1 µM | GI50 [7]: 3.06 µM | TGI [7]: 8.1 µM | GI50 [8]: 12.4 µM | TGI [8]: 28.7 µM | GI50 [9]: 10.2 µM | TGI [9]: 23.7 µM | GI50 [10]: 14.1 µM | TGI [10]: 33.2 µM | GI50 [11]: 15.4 µM | TGI [11]: 33.1 µM | GI50 [12]: 11.6 µM | TGI [12]: 26.5 µM | GI50 [13]: 10.2 µM | TGI [13]: 23 µM | GI50 [14]: 13.3 µM | TGI [14]: 27.9 µM | GI50 [15]: 10.9 µM | TGI [15]: 22.9 µM | GI50 [16]: 12.8 µM | TGI [16]: 32.8 µM | GI50 [17]: 7.33 µM | TGI [17]: 22.8 µM | GI50 [18]: 4.88 µM | TGI [18]: 23.7 µM | GI50 [19]: 13.6 µM | TGI [19]: 27.5 µM | GI50 [20]: 14.2 µM | TGI [20]: 28.7 µM | GI50 [21]: 13.1 µM | TGI [21]: 28.2 µM | GI50 [22]: 2.52 µM | TGI [22]: 22.1 µM | GI50 [23]: 7.86 µM | TGI [23]: 24.5 µM | GI50 [24]: 18.4 µM | TGI [24]: 36.3 µM | GI50 [25]: 14.9 µM | TGI [25]: 30.6 µM | GI50 [26]: 2.85 µM | TGI [26]: 18.7 µM | GI50 [27]: 19.4 µM | TGI [27]: 86.9 µM | GI50 [28]: 16 µM | TGI [28]: 30.5 µM | GI50 [29]: 16.6 µM | TGI [29]: 43.4 µM | GI50 [30]: 13.7 µM | TGI [30]: 28 µM | GI50 [31]: 12.1 µM | TGI [31]: 25.9 µM | GI50 [32]: 2.46 µM | TGI [32]: 13.9 µM | GI50 [33]: 22.8 µM | TGI [33]: 46.4 µM | GI50 [34]: 7.19 µM | TGI [34]: 21 µM | GI50 [35]: 7.24 µM | TGI [35]: 20.9 µM | GI50 [36]: 15.6 µM | TGI [36]: 31.3 µM | GI50 [37]: 12 µM | TGI [37]: 24.3 µM | GI50 [38]: 11.6 µM | TGI [38]: 26.5 µM | GI50 [39]: 15.1 µM | TGI [39]: 28.9 µM | GI50 [40]: 15.3 µM | TGI [40]: 29.2 µM | GI50 [41]: 13.9 µM | TGI [41]: 27.3 µM | GI50 [42]: 17.9 µM | TGI [42]: 86.7 µM | GI50 [43]: 14.1 µM | TGI [43]: 30.3 µM | GI50 [44]: 11 µM | TGI [44]: 28.2 µM | GI50 [45]: 3.09 µM | TGI [45]: 14.1 µM | GI50 [46]: 13.9 µM | TGI [46]: 28.7 µM | GI50 [47]: 14.9 µM | TGI [47]: 29.6 µM | GI50 [48]: 13.3 µM | TGI [48]: 27.4 µM | TGI [49]: 35.8 µM | GI50 [50]: 15.6 µM | TGI [50]: 29.6 µM | GI50 [51]: 4.19 µM | TGI [51]: 19.2 µM | GI50 [52]: 13.5 µM | TGI [52]: 39.3 µM | GI50 [53]: 12.8 µM | TGI [53]: 34 µM | GI50 [54]: 4.64 µM | TGI [54]: 22.4 µM | GI50 [55]: 13.2 µM | TGI [55]: 29.8 µM | GI50 [56]: 11.9 µM | TGI [56]: 25.2 µM | GI50 [57]: 15.6 µM | TGI [57]: 35.8 µM
